For 1 compound, Cmax and T1/2 results are on record in PMC9859815, “Pharmacokinetics and bioequivalence evaluation of omeprazole and sodium bicarbonate dry suspensions in healthy Chinese volunteers” (Scientific Reports, 2023).

As usually defined, the Cmax is the peak of the concentration-time curve.

The nature of data set [1]: Single-dose, 2-sequence, 2-period crossover pharmacokinetic/bioequivalence study, fasting oral administration, healthy Chinese subjects (also by CYP2C19 phenotype and gender). It counts as in vivo, human. Particulars: mean ± SD. The procedure: Forty subjects were randomly divided into two groups, with 20 patients in each group. The drugs were given to the patients of each group in the order of T-R and R-T in two cycles, with a single dose of 1 bag (each bag: 20 mg omeprazole + 1680 mg sodium bicarbonate). The subjects in each group fasted after 21:00 the night before administration. Collecting plasma samples at 0 h (within 60 min before administration) and after administration of 5 min, 10 min, 15 min, 20 min, 30 min, 45 min, 1 h, 1.5 h, 2 h, 3 h, 4 h, 6 h, 8 h, 10 h, 12 h (a total of 16 points) and stored at − 80 °C until analysis. The blood samples were centrifuged at 1700 g (4 °C) for 10 min within 1 h of collection. The centrifuged plasma was immediately aliquoted into 2 tubes with corresponding labels (1 for testing, 1 for backup, the volume of plasma in each tube should not be less than 500 µL) and stored at […] until analysis. The total time from whole blood collection to centrifugation to separate plasma and then stored in […] refrigerator should not exceed 2 h.
The concentration of omeprazole in EDTA-K2 anticoagulant human plasma was determined by HPLC–MS/MS, quantified by internal standard (internal standard: omeprazole-D3). The sample pretreatment method was the protein precipitation method. And the linear range of the omeprazole plasma concentration determination method was 4–4000 ng mL^−1, the minimum quantitative limit was 4 ng mL^−1.
The pharmacokinetic (PK) parameters evaluated in this study included maximum plasma omeprazole concentration (Cmax) and time to reach the maximum plasma concentration (Tmax) obtained directly from non-interpolated data, as well as the area under the plasma concentration curve of omeprazole at 0-t after administration (AUC0–t) using the linear trapezoidal method to calculate. Terminal elimination rate constant λz and the apparent terminal elimination half-life (T1/2) were also needed. AUC0–∞ (the AUC from time 0 to infinity) used the formula: AUC0–∞ = AUC0–t + Ct/λ(T1/2 = 0.693/λz) to calculate. […]

For data set [2] the following is noted: CYP2C19 EM, Japanese; cited from earlier work.

Where two headings read alike, the source gives them in different places.

Turning to `COc1ccc2[nH]c([S+]([O-])Cc3ncc(C)c(OC)c3C)nc2c1` (stereo not shown) [omeprazole], the values for the Cmax in data set [1] (CYP2C19 EM (N = 12)) and in data set [1] (CYP2C19 PM (N = 4)) were 633.25 ± 295.94 ng/mL and 1650.00 ± 451.66 ng/mL, respectively. For the same compound, the figures for the T1/2 in data set [1] (CYP2C19 EM (N = 12)) and in data set [2] were 44.4 ± 11.4 min and 65.4 ± 4.8 min, respectively.
